# This is a selection; strong and weak results do not stand in their true shares. Records with an inconclusive call do not appear. Calls of active or inactive are those of the source. The call rests on the fitted dose curve; in most records, active means well fitted activation curve with a large enough effect; inconclusive means small, poorly fitted or top-dose-only effect; inactive means no such curve, though single readings can be large or run the other way.
# Experiment: qHTS Assay for Agonists of the Thyroid Stimulating Hormone Receptor: Activators of Intracellular cAMP Concentrations in Parental HEK 293; further: % of control where 0% means no effect; nearly all actives have a fitted effect of over 55% in size
# Details: parental HEK293 CNG cAMP sensor, membrane potential fluorescence; at 57.1 µM (top of the series) unless noted
row,Structure (SMILES),activation
1,O=P(Nc1nccs1)(c1ccccc1)c1ccccc1,inactive: 5.8%
2,c1nnnn1CCn1cnnn1,inactive: -5.29%
3,CN1CCC[C@H](OC(=O)C(c2ccccc2)c2ccccc2)C1,inactive: 8.42% [at 11.4 µM]
4,C[C@@H](O)COc1ccc([As](=O)(O)O)cc1N,inactive: -1.04% [at 11.4 µM]
5,Cc1cc([N+](=O)[O-])cc([N+](=O)[O-])c1O,inactive: 20.3%
6,[N-]=[N+]=Nc1ccc([As](=O)(O)O)cc1,inactive: 8.27% [at 11.4 µM]
7,O=C(OC1CN2CCC1CC2)c1cccc(Cl)c1 (stereo not given),inactive: 7.11%
8,COC(=O)c1cc2c(s1)N=C(c1ccccc1)N(C)P2(=O)N1CCOCC1 (stereo not given),inactive: -15.6%
9,O=P1(Nc2nc3ccc(Cl)cc3s2)COc2ccccc2O1 (stereo not given),inactive: 13%
10,O=[N+]([O-])c1ccc(C[As](=O)(O)O)cc1,inactive: 12.5% [at 11.4 µM]
11,Cc1c2non([O-])c-2c(C)[n+](=O)[n+]1[O-],inactive: -8.62%
12,NCC[C@@H](N)CSP(=O)(O)O,inactive: 1.33% [at 11.4 µM]
13,[N-]=[N+]=NCC(O)CN=[N+]=[N-] (stereo not given),inactive: 5.89% [at 11.4 µM]
14,C(Cc1nn[nH]n1)c1nn[nH]n1,inactive: -0.19% [at 11.4 µM]
15,CN(C(=O)Cc1ccccc1)[C@@H]1CC[C@@]2(CCCO2)C[C@H]1N1CCCC1,inactive: 8.41%
16,CCc1nc2c(n1)c1c(non1O)c1c2no[n+]1[O-],inactive: -11%
17,O=C(CO)Nc1ccc([As](=O)(O)O)cc1,inactive: 16.5% [at 11.4 µM]
18,COP1(=S)c2c(C)nn(CCC#N)c2N=C(c2ccc(F)cc2)N1C (stereo not given),inactive: 4.47%

row,Structure (SMILES),activation
1,O=C(COc1ccccc1)OC1CN2CCC1CC2 (stereo not given),inactive: -0.127%
2,O=C(O)[C@@H](O)c1ccc([As](=O)(O)O)cc1,inactive: -2.76% [at 11.4 µM]
3,CN(N=O)C(=N)N[N+](=O)[O-],inactive: 33.9%
4,[N-]=[N+]=NCC(N)=O,inactive: -1.44% [at 11.4 µM]
5,O=[As]c1ccc(S(=O)(=O)NCCO)cc1 (stereo not given),inactive: 6.34% [at 11.4 µM]
6,O=C(OC1CN2CCC1CC2)C12CC3CC(CC(C3)C1)C2 (stereo not given),inactive: 22.7%
7,NC(=O)Nc1cc([As](=O)(O)O)cc(I)c1O,inactive: -2.12% [at 11.4 µM]
8,NS(=O)(=O)Cc1ccc([As](=O)(O)O)cc1,inactive: 5.82% [at 11.4 µM]
9,O=C(CC(=O)c1ccccc1)O[C@H]1CN2CCC1CC2,inactive: 7.97% [at 11.4 µM]
10,O=P(Nc1nccs1)(c1ccccc1)c1nc2ccccc2s1 (stereo not given),inactive: 15.9%
11,O=[As](O)(O)c1ccc([As](=O)(O)O)cc1,inactive: 16.2% [at 11.4 µM]
12,Cc1nn(-c2ccccc2)c2c1P(=O)(N1CCOCC1)N(C)C(c1ccccc1)=N2 (stereo not given),inactive: -0.719%
13,O=P1(Nc2ncccn2)COc2ccccc2OC1,inactive: 6.25%
14,O=P1(Nc2ccc(Br)cn2)COc2ccccc2OC1,inactive: 1.26%
15,CN(CCCl)Cc1cc(Cl)c(NC2=NCCN2)c(Cl)c1,inactive: -3.35%
16,O=P1(Nc2ccccn2)COc2ccccc2OC1,inactive: 1.91%
17,Clc1n[nH]nc1-c1nn[nH][15n]1,inactive: -0.704%

# Reference: PubChem BioAssay AID938 (National Center for Advancing Translational Sciences (NCATS), 2007)
